Drawing on PubChem BioAssay AID651702 (NMMLSC, 2012), this text covers inhibition for two molecules.

Structures are written as SMILES. Only a part is listed here, and it is no random draw. Activity calls are given as the source filed them.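 How the source made its calls: active means inhibition above about 55% (limit read from the data); inconclusive means no clear call, values can overlap the other calls; inactive means the rest.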

The nature of this test: LAMP-1 surface exposure blockers, TALL-104 cells – cell-based, flow cytometry, MLPCN library, primary screen (AID 651702). The note with it: TALL-104 LAMP-1 surface exposure, at 10 µM, stronger effect = higher value, cells stimulated with thapsigargin and PMA.
In general, inhibition refers to the drop in the measured response relative to a control, in per cent. Consider `CCC(=O)N(c1ccccc1)C1(COC)CCN(CCc2cccs2)CC1`, for which the inhibition was inactive: 1.5%.
For the molecule `CCC(=O)N(c1ccccc1)C1(COC)CCN(CCn2nnn(CC)c2=O)CC1`, the inhibition was inactive: -2.5%.
